We go through 19 compounds from ChEMBL document CHEMBL5726477, “Substituted polycyclic carbamoyl pyridone derivative prodrug” (2019).

This test can be described thus: cells. It counts as cell-based. As to conditions: MDCK.
For orientation: IC50 means the concentration needed to halve the response being measured. Lower therefore signals inhibition by little substance. Compound `CCOC(=O)c1cccc(Cl)c1CSc1ccc(F)cc1` gave an IC50 of 44 nM.

The compound `COCCN1C[C@H](C(c2ccccc2)c2ccccc2)n2cc(Br)c(=O)c(O)c2C1=O` had an IC50 of 114 nM.

In turn, `COC(=O)c1cn([C@H](CNC(=O)OC(C)(C)C)C2c3ccccc3CSc3ccccc32)c(C(=O)OC)c(OCc2ccccc2)c1=O` (some centres undefined) showed an IC50 of 73 nM.

`COC[C@H](C)N1C(=O)c2c(OCc3ccccc3)c(=O)ccn2NC1CO[Si](C)(C)C(C)(C)C` (some centres undefined) came in with a concentration for half-maximal inhibition (IC50) of 23 nM.

Compound `COCCC1Nn2ccc(=O)c(OCc3ccccc3)c2C(=O)N1CCO[Si](C)(C)C(C)(C)C` (centres undefined) registered an IC50 of 230 nM. Compared with the last compound, the IC50 is about 10-fold higher.

Consider `COC(=O)c1c(OCc2ccccc2)c(=O)c(C)cn1C(CNC(=O)OC(C)(C)C)C1c2ccccc2CCc2ccccc21` (centres undefined), for which inhibition was half-maximal at 49 nM (IC50).

Consider `O=C1c2c(OCc3ccccc3)c(=O)ccn2N(C2c3ccccc3CCc3ccccc32)CN1CCN1C(=O)c2ccccc2C1=O`, for which the concentration for half-maximal inhibition (IC50) amounted to 88 nM.

In the case of `CC(C)N1CN(C2c3ccccc3CCc3ccccc32)n2cc(C(=O)O)c(=O)c(OCc3ccccc3)c2C1=O`, half-maximal inhibition (IC50) was put at 36 nM.

`CC(CO[Si](C)(C)C(C)(C)C)N1CN(C(=O)OC(C)(C)C)n2ccc(=O)c(OCc3ccccc3)c2C1=O` (centres undefined) registered an IC50 of 117 nM.

Turning to `COCCN1CN(C(c2ccccc2)c2ccccc2)n2c(CC#N)cc(=O)c(OCc3ccccc3)c2C1=O`, the IC50 worked out at 233 nM. Compared with the last compound, the IC50 is about 2-fold higher.

`CC(C)N1C(=O)c2c(OCc3ccccc3)c(=O)ccn2NC1CO[Si](C)(C)C(C)(C)C` (centres undefined): the half-maximal inhibitory concentration (IC50) came out at 32 nM.

The compound `CC(C)N1C(=O)c2c(O)c(=O)ccn2N(C2c3ccccc3CCc3ccccc32)C1CN1C(=O)c2ccccc2C1=O` (centres undefined) had an IC50 of 98 nM. Against the preceding compound, the IC50 is about 3.1-fold higher.

On to `CC(=O)OCCN1C(=O)c2c(O)c(=O)ccn2N(C2c3ccccc3CCc3ccccc32)C1CN1C(=O)c2ccccc2C1O` (centres undefined), for which the concentration for half-maximal inhibition (IC50) was 76 nM.

`C[C@@H](N1CN([C@@H]2c3ccccc3SCc3c2cccc3C(F)(F)F)n2ccc(=O)c(OCc3ccccc3)c2C1=O)C(F)(F)F` gave an IC50 of 29 nM. This IC50 is about 2.6-fold lower than that of the compound before.

The compound `O=C(OCc1cccc2c1SCc1ccccc1C2O)c1ccccc1` (centres undefined) gave an IC50 of 65 nM.

Regarding `CN1CC(C2c3ccccc3CCc3ccccc32)n2ccc(=O)c(OCc3ccccc3)c2C1=O` (centres undefined), the midpoint of inhibition, the IC50, lay at 88 nM. The IC50 values of the last two compounds are within 1.5-fold of each other.

`N#CCN1CC(C2c3ccccc3CCc3ccccc32)n2ccc(=O)c(OCc3ccccc3)c2C1=O` (centres undefined) showed an IC50 of 55 nM.

Turning to `CC(C)(C)[Si](C)(C)OCC1Nn2ccc(=O)c(OCc3ccccc3)c2C(=O)N1CCOC(=O)c1ccccc1` (centres undefined), 65 nM corresponded to half-maximal inhibition (IC50).

In turn, `NN1CC(C2c3ccccc3CCc3ccccc32)n2ccc(=O)c(OCc3ccccc3)c2C1=O` (centres undefined) gave an IC50 of 65 nM.
